Reference: patent publication US20180050114A1, “HER2 APTAMER-ANTICANCER DRUG COMPLEX FOR CANCER CELL CHEMOTHERAPY” (priority 2016, published 2018)

Tested on: BT474-Tra and BT474 cell lines
Assay: MTS cell viability of Trastuzumab-resistant cell line
Assay type: cell-based
Conditions: 0 to 200 μg/ml, 48 hr; BT474-Tra versus BT474 (FIG. 8)
Protocol: (1) HER2-positive breast cancer BT474 cells were subcultured at intervals of 3 days using a culture medium containing 4 μg/ml of Trastuzumab, after which resistant clones, which were continuously exposed to Trastuzumab for a total of 8 months, were selected, thus establishing a Trastuzumab-resistant cell line (BT474-Tra).
(2) BT474 and BT474-Tra cell lines were treated with Trastuzumab at a concentration of 0 to 200 μg/ml for 48 hr, after which the cell viability was measured. For the BT474 and BT474-Tra cell lines, the expression of p185HER2, p95HER2, p-HER2, p-p95HER2, HERS, p-HER3, total-AKT, p-AKT, and PARP was analyzed via Western blot. Cell viability was measured using a CellTiter 96* Aqueous One Solution Cell Proliferation Assay [MTS, 3-(4,5-dimethylthiazol-2-yl)-5-(3-carboxymethoxyphenyl)-2-(4-sulfophenyl)-2H-tetrazolium], and the amount of produced formazan was determined by measuring absorbance at 490 nm using a Spectramax Plus 384 microplate analyzer. In the Western blot, the above cells were lysed in a lysis buffer (30 mM NaCl, 0.5% Triton X-100, 50 mM Tris-HCl; pH 7.4) containing phosphatase and a protease inhibitor, and the supernatant was collected and then the protein was […] using a Bradford protein assay kit. […] Signal intensity was measured using an Enhanced Chemiluminescence Kit and an X-ray film, and quantified with AlphaEaseFC software.

Substance: Trastuzumab: existing drug used to establish and test the Trastuzumab-resistant cell line BT474-Tra
- sensitivity to Trastuzumab (cell viability, MTS): lower sensitivity to Trastuzumab than the BT474 cell line
